Protein sequences, listed by entry. Tags and fused reporters are not part of them. Lines headed by an entry give the natural chain unless they say otherwise; changes in a name come on top.
UniProt P41144: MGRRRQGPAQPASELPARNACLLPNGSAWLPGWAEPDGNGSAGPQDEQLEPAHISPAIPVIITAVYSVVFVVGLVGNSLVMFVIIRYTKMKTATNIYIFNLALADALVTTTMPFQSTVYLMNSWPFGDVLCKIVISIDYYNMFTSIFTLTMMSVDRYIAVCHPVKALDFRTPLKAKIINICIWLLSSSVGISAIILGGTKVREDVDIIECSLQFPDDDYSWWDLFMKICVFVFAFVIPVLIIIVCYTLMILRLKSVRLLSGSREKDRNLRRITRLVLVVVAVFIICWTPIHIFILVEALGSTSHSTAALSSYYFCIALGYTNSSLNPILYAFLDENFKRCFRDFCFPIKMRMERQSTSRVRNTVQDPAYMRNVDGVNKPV

In ChEMBL document CHEMBL1125782, “Structure/activity studies related to 2-(3,4-dichlorophenyl)-N-methyl-N-[2-(1-pyrrolidinyl)-1-substituted- ethyl]acetamides: a novel series of potent and selective kappa-opioid agonists” (1991):

Assays:
[1] = target: T1, Kappa-type opioid receptor (Cavia porcellus, UniProt P41144); experiment: Binding affinity against opioid receptor kappa in guinea pig brain membrane using [3H]bremazocine as the radioligand
[2] = target: T1, Kappa-type opioid receptor; experiment: Binding affinity against opioid receptor kappa, in guinea pig brain membrane, using [3H]bremazocine as the radioligand.
Mus musculus [3] = experiment: Sedative activity after sc administration in female mice (Alderley Park strain)
Mus musculus [4] = experiment: Antinociceptive activity in acetic acid induced abdominal constriction assay after sc administration and abolished by naloxone administered at 3 mg/kg sc in mice; details: route subcutaneous, Abdomen
[5] = target: T1, Kappa-type opioid receptor; experiment: Binding affinity against Opioid receptor kappa 1, in guinea pig brain membrane, using [3H]bremazocine as the radioligand.

Row | Compound | IC50 [1] [µM] | IC50 [2] [µM] | ED50 (Mus musculus [3]) [mg/kg] | ED50 (Mus musculus [4]) [mg/kg] | IC50 [5] [µM]
1 | CN(C(=O)Cc1ccc(Cl)c(Cl)c1)C(CN1CCCC1)c1cccc(C#N)c1 (stereo not given) | 0.025 | – | – | – | –
2 | CC(C)[C@@H](CN1CCCCC1)N(C)C(=O)Cc1ccc(Cl)c(Cl)c1 | – | 0.0108 | 0.46 | – | –
3 | CN(C(=O)Cc1ccc(Cl)c(Cl)c1)C(CN1CCCC1)C(C)(C)C (stereo not given) | – | 0.0245 | 0.13 | – | –
4 | CN(C(=O)Cc1ccc(Cl)c(Cl)c1)C(CN1CCCC1)c1cccc(Cl)c1 (stereo not given) | – | 0.0578 | 0.68 | – | –
5 | CN(C(=O)Cc1ccc(Cl)c(Cl)c1)[C@H](CN1CCCC1)c1ccccc1 | – | – | 0.05 | 0.004 | –
6 | CN(C(=O)Cc1ccc(Cl)c(Cl)c1)[C@@H](CN1CCCC1)c1ccccc1 | – | 2.75 | – | > 10 | –
7 | CC(C)[C@@H](CN1CCCC1)N(C)C(=O)Cc1ccc(C#N)cc1 | 0.277 | – | 9.31 | – | –
8 | CCN(C(=O)Cc1ccccc1)[C@H](CN1CCCC1)C(C)C | 0.322 | – | 8.72 | – | –
9 | CC(C)C[C@@H](CN1CCCC1)N(C)C(=O)Cc1ccc(Cl)c(Cl)c1 | – | 0.014 | 0.37 | – | –
10 | COc1ccccc1C(CN1CCCC1)N(C)C(=O)Cc1ccc(Cl)c(Cl)c1 (stereo not given) | 0.0168 | – | 0.22 | – | –
11 | CC(C)[C@@H](CN1CCCC1)N(C)C(=O)Cc1ccc(Cl)cc1 | – | – | 1.4 | – | 0.0372
12 | CC(C)[C@@H](CN1CCCC1)N(C)C(=O)CSc1ccccc1 | 0.206 | – | 9.71 | – | –
13 | CN(C(=O)Cc1ccc(Cl)c(Cl)c1)C(CN1CCCC1)c1ccccc1O (stereo not given) | 0.0217 | – | – | – | –
14 | CN(C(=O)Cc1ccc(Cl)c(Cl)c1)C1CCCCC1N1CCCC1 (stereo not given) | – | – | 7.37 | 1.1 | –
15 | CC(C)[C@@H](CN1CCCC1)NC(=O)Cc1ccccc1 | 0.485 | – | 29.7 | – | –
16 | CC(C)[C@@H](CN(C)Cc1ccccc1)N(C)C(=O)Cc1ccc(Cl)c(Cl)c1 | 1.61 | – | – | – | –
17 | CC(C)[C@@H](CN1CCCC1)N(C)C(=O)Cc1ccc(Cl)c(Cl)c1 [listing 1 of 2 here] | – | – | 0.78 | – | –
18 | C[C@@H](CN1CCCC1)N(C)C(=O)Cc1ccc(Cl)c(Cl)c1 | – | – | 1.98 | – | –
19 | CC(C)[C@@H](CN1CCCC1)N(C)C(=O)Cc1cccc(Cl)c1 | – | 0.099 | 0.77 | – | –
20 | CC(C)[C@H](CN1CCCC1)N(C)C(=O)Cc1ccc(Cl)c(Cl)c1 | – | 1.02 | 33.1 | – | –
21 | CCN(CC)C[C@H](C(C)C)N(C)C(=O)Cc1ccc(Cl)c(Cl)c1 | 0.081 | – | 1.18 | – | –
22 | CSc1ccc(C(CN2CCCC2)N(C)C(=O)Cc2ccc(Cl)c(Cl)c2)cc1 (stereo not given) | 0.124 | – | 3.3 | – | –
23 | COc1ccc(C(CN2CCCC2)N(C)C(=O)Cc2ccc(Cl)c(Cl)c2)cc1OC (stereo not given) | 0.0328 | – | 0.13 | – | –
24 | COc1ccc(CC(=O)N(C)[C@H](CN2CCCC2)C(C)C)cc1 | 0.909 | – | 10.6 | – | –
25 | CNC[C@H](C(C)C)N(C)C(=O)Cc1ccc(Cl)c(Cl)c1 | 0.625 | – | – | – | –
26 | CC(C)[C@@H](CN(C)C)N(C)C(=O)Cc1ccc(Cl)c(Cl)c1 | 0.105 | – | 1.15 | – | –

Row | Compound | IC50 [1] [µM] | IC50 [2] [µM] | ED50 (Mus musculus [3]) [mg/kg] | ED50 (Mus musculus [4]) [mg/kg] | IC50 [5] [µM]
27 | CC(C)[C@@H](CN1CCCC1)N(C)C(=O)Cc1ccccc1 | 0.656 | – | 12.6 | – | –
28 | CC(C)[C@@H](CN1CCCC1)N(C)C(=O)COc1ccccc1 | 0.0209 | – | 0.73 | – | –
29 | CN(C(=O)Cc1ccc(Cl)c(Cl)c1)[C@H](CN1CC=CC1)c1ccccc1 | 0.0108 | – | 0.04 | – | –
30 | CC(=O)Nc1cccc(C(CN2CCCC2)N(C)C(=O)Cc2ccc(Cl)c(Cl)c2)c1 (stereo not given) | 0.0055 | – | 0.19 | – | –
31 | CCCN(C(=O)Cc1ccccc1)[C@H](CN1CCCC1)C(C)C | 1.44 | – | – | – | –
32 | CCCN(C)C[C@H](C(C)C)N(C)C(=O)Cc1ccc(Cl)c(Cl)c1 | 0.071 | – | 2.42 | – | –
33 | CN(C(=O)Cc1ccc(Cl)c(Cl)c1)C(CN1CCCC1)c1ccc(O)cc1 (stereo not given) | 0.0098 | – | 0.33 | – | –
34 | CN(C(=O)Cc1ccc(Cl)c(Cl)c1)C(CN1CCCC1)c1cccc(N)c1 (stereo not given) | 0.0143 | – | 0.17 | 0.041 | –
35 | COc1cccc(C(CN2CCCC2)N(C)C(=O)Cc2ccc(Cl)c(Cl)c2)c1 (stereo not given) | 0.0312 | – | 0.39 | – | –
36 | CC(C)[C@@H](CN1CCCC1)N(C)C(=O)Cc1ccc([N+](=O)[O-])cc1 | 0.092 | – | 0.87 | – | –
37 | CC(C)[C@@H](CN1CCCC1)N(C)C(=O)Cc1ccc(Cl)c(Cl)c1 [listing 2 of 2 here] | – | 0.0069 | – | – | –
38 | COc1ccc(C(CN2CCCC2)N(C)C(=O)Cc2ccc(Cl)c(Cl)c2)c(OC)c1 (stereo not given) | 0.248 | – | 1.5 | – | –
39 | CC(C)[C@@H](CN1CCCC1)N(C)C(=O)Cc1ccc(F)c(F)c1 | 0.101 | – | 1.18 | – | –
40 | CC[C@@H](CN1CCCC1)N(C)C(=O)Cc1ccc(Cl)c(Cl)c1 | – | 0.0654 | 2.76 | – | –
41 | CC(C)[C@@H](CN(C)C(C)C)N(C)C(=O)Cc1ccc(Cl)c(Cl)c1 | 0.0146 | – | 0.18 | – | –
42 | CNc1cccc(C(CN2CCCC2)N(C)C(=O)Cc2ccc(Cl)c(Cl)c2)c1 (stereo not given) | 0.0391 | – | 0.63 | – | –
43 | CCC(C)[C@@H](CN1CCCC1)N(C)C(=O)Cc1ccc(Cl)c(Cl)c1 (stereo not given in full) | – | 0.0101 | 0.16 | – | –
44 | CC(C)[C@@H](CN1CCCC1)N(C)C(=O)CCc1ccccc1 | 0.42 | – | – | – | –
45 | CCC[C@@H](CN1CCCC1)N(C)C(=O)Cc1ccc(Cl)c(Cl)c1 | – | 0.0387 | 0.8 | – | –
46 | C=CCN(C)C[C@H](c1ccccc1)N(C)C(=O)Cc1ccc(Cl)c(Cl)c1 | 0.0082 | – | 0.71 | – | –
47 | CN(C(=O)Cc1ccc(Cl)c(Cl)c1)C(CN1CCCC1)c1cccc(O)c1 (stereo not given) | 0.0115 | – | 0.53 | – | –
48 | COc1ccc(C(CN2CCCC2)N(C)C(=O)Cc2ccc(Cl)c(Cl)c2)cc1 (stereo not given) | 0.0732 | – | 0.55 | – | –
49 | CN(C(=O)Cc1ccc(Cl)c(Cl)c1)C(CN1CCCC1)c1ccccc1 (stereo not given) | – | 0.0122 | 0.15 | 0.007 | –
50 | CC(C)[C@@H](CN1CCCC1)N(C)C(=O)Cc1ccc(C(F)(F)F)cc1 | 0.0143 | – | 0.56 | – | –
51 | CC[C@]12CCN(CC3CC3)[C@H](C(=O)c3ccc(O)cc31)[C@@H]2C | – | – | 0.46 | 0.17 | –
